Experiment [1] has as its target T1, KCa3.1 (Homo sapiens, UniProt O15554). Nature of the experiment: Whole patch clamp of KCa3.1 currents in isolated human lung mast cells (activated by EBIO). The note with it: currents activated by EBIO 100 μM, read-out: IC50, inhibition of KCa3.1 K+ channels. The format is cell-based. A general note: In patch-clamp work, channel activity is measured electrically.

The target of experiment [2] is T1, KCa3.1. Briefly: Whole patch clamp of potassium currents in CHO cells stably expressing recombinant human KCa3.1. To be noted: currents stimulated by intracellular Ca2+ 1 μM, read-out: IC50, inhibition of KCa3.1 K+ channels. The format is cell-based.

Here are results for 1 compound from patent publication US20100056637A1, “TREATMENT METHODS USING TRIARYL METHANE COMPOUNDS” (Icagen, Inc., priority 2005, published 2010).

By IC50 is commonly meant the concentration that gives 50% inhibition. For `NC(=O)C(c1ccccc1)(c1ccc(F)cc1)c1ccc(F)cc1` [Senicapoc, 2,2-bis(4-fluorophenyl)-2-phenylacetamide], the IC50 in experiment [1] and in experiment [2] was around 6 nM in each case.
